This passage reports fold change (FC) and Selectivity ratio results from ChEMBL document CHEMBL5506053, “Explorations of Agonist Selectivity for the α9* nAChR with Novel Substituted Carbamoyl/Amido/Heteroaryl Dialkylpiperazinium Salts and Their Therapeutic Implications in Pain and Inflammation” (J Med Chem, 2024).

The chains behind the UniProt entries cited, without tags or fusion partners. Where a name states a change or a piece, a line headed by the entry shows the natural chain unless it says otherwise.
UniProt Q9UGM1: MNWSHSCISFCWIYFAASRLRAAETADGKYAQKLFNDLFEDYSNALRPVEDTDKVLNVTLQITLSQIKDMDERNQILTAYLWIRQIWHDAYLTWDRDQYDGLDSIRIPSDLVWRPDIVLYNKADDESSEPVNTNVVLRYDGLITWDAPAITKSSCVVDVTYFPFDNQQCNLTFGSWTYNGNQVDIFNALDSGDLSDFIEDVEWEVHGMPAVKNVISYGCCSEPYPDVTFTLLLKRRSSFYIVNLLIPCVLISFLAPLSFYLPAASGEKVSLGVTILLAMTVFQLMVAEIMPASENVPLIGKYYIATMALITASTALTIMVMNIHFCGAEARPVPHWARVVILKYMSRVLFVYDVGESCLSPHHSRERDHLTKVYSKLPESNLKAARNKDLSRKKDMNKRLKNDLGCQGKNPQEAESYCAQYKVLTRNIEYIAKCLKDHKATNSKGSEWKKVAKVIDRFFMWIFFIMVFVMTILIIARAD
UniProt Q9GZZ6: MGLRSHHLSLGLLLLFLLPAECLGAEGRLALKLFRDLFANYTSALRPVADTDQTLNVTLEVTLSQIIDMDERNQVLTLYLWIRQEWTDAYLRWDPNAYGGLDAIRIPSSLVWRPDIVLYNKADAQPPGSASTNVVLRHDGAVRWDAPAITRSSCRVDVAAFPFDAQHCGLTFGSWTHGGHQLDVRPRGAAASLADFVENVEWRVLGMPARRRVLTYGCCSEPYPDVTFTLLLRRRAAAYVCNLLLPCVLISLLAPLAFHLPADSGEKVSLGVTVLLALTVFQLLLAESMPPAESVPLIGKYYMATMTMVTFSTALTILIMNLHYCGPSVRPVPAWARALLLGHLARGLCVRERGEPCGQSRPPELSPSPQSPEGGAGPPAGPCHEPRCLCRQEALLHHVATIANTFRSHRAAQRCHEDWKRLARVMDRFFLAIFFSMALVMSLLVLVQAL
UniProt P36544, whole entry: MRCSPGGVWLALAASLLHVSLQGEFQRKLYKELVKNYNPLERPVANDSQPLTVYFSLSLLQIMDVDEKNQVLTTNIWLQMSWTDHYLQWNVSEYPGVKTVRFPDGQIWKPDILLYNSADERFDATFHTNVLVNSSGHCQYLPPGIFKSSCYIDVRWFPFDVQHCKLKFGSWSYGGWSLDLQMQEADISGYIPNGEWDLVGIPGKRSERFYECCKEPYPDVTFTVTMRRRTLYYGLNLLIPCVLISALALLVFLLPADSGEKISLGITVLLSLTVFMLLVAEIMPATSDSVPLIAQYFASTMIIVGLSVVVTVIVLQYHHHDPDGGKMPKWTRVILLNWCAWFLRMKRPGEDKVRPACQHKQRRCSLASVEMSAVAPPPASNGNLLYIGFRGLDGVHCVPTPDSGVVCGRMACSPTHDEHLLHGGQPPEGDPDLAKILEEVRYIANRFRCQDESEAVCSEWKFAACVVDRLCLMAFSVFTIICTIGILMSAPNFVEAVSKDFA

Experiment [1] concerns the target Neuronal acetylcholine receptor; alpha9/alpha10 (Homo sapiens) (UniProt Q9UGM1+Q9GZZ6). Description: Agonist activity at alpha9alpha10 nAChR (unknown origin) assessed as fold change in maximum response (Imax) relative to acetylcholine. It counts as protein-complex assay. Conditions: filed as agonist.
The target in experiment [2] is Neuronal acetylcholine receptor subunit alpha-7 (Homo sapiens, UniProt P36544). Put plainly: Agonist activity at human alpha7 nAChR expressed as xenopus laevis oocytes assessed as increase in receptor desensitization by measuring fold change in peak current response at 30 uM incubated for 120 secs presence of PNU-120596 by two-electrode voltage-clamp electrophysiology method relative to acetylcholine. It counts as cell-based. The note with it: Oocyte, filed as agonist, time 120.0 sec.

Experiment [3] can be described thus: Selectivity ratio for agonist activity at alpha7 nAChR (unknown origin) to agonist activity at alpha9 nAChR (unknown origin).

Each structure is given as a SMILES string.

For `CC[N+]1(CC)CCN(c2ccc(C(=O)Nc3cccc(C)n3)cc2)CC1.[I-]`, the results for the fold change (FC) in experiment [1] and in experiment [2] were 0.9 and 0.17, respectively. The Selectivity ratio in experiment [3] is 10.
